The values that follow are results of earlier work, collected in article PMC7496931, “Activation of Sirtuin 2 Inhibitors Employing Photoswitchable Geometry and Aqueous Solubility” (Chemmedchem, 2020).

The data set deals with Sirt2. Details: method as in PMID 26982234. As to conditions: read-out: Sirt2 inhibition, IC50 (originally published value); cited from earlier work.

Regarding `NC(=O)c1cncc(OCc2cccc(NC(=O)c3ccc(OCc4ccccc4)cc3)c2)c1` [2 (R=OBn)], the half-inhibitory concentration (IC50) was 100 nM.

As usually defined, the IC50 is the concentration at which inhibition is half-maximal.
